# Experimental data reported in the NIST ThermoML archive (doi:10.1021/je030165y).
# Numbers after ± are expanded uncertainties.
# Experiment: refractive index (Na D-line) (dimensionless)
# Conditions: 298.15 K; 101.33 kPa; Liquid; Standard Abbe refractometry
smiles,measurement,value
CCCCOCCCC [dibutyl ether],refractive index,1.397 ± 0.0008
